# Measured affinities in a library of Ab-95 light chain variants

Data: MIT Lincoln Laboratory AlphaSeq set, Engelhart et al. 2022, doi:10.1038/s41597-022-01779-4, as distributed in FLAb.

All variants were tested on one target, the spike HR2 peptide PDVDLGDISGINAS (SARS-CoV-2).

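The starting antibody came from a phage panning campaign against this peptide. AAYL52 was designed without a model: most single CDR substitutions and a random sample of double and triple ones. The scFvs were displayed on barcoded MATa yeast, the peptide on MATalpha yeast. Mating (16 h, 30 °C) was followed by selection of diploids and sequencing of their barcodes. Each replicate has its own calibration line, from reference interactions of the BCL2 family. The assay was run in three technical replicates.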

Parent scFv Ab-95: VH joined to VL by a (GGGGS)3 linker. Changes lie in the light chain CDRs alone.
VH: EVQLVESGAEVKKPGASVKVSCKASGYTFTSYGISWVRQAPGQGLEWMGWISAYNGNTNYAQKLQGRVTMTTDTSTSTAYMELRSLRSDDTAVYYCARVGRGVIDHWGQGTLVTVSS
VL: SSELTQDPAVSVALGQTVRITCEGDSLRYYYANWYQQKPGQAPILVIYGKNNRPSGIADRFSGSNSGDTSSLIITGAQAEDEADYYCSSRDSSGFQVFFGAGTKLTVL

Variants are written as CDR1, CDR2 and CDR3 of the light chain (limits as in the source). Parent: EGDSLRYYYAN, GKNNRPS, SSRDSSGFQVF.
Every variant below is changed at F98 of the VL (sequential numbering).
Values are apparent Kd, the geometric mean of the replicates that gave a signal; lower means stronger binding.
"nd" marks a missing value. The strain was present, yet no cells mated with the target were sequenced in any replicate, which points to weak or no binding.
In this assay the parent's reference entry averaged 200 nM; its copy inside this library read 180 nM.
As a blank, each scFv also met three strains without target: over library AAYL52, 28% of these pairings were detected, typically at 8.2 µM and seldom below 800 nM.

With EGDSLRYNYAN / GKNNRPS / SSWDSSGFQVL the result was 440 nM (3 of 3 replicates). For EGDSLRMYYAN / KKNNRPS / SSRDSSGFQVS, the assay gave nd (0 of 3 replicates). The variant EGDSLRYYYCY / GKNNRPS / SSRDSSGFQVQ gave 7.8 µM (2 of 3 replicates). For NGDSLRYYYAN / GKNNRSS / SSRDSSGFQVR, the assay gave 220 nM (3 of 3 replicates). For EGDSLRYYYLN / KKNNRPS / SSRDSSGFQVN, the assay gave nd (0 of 3 replicates). With EGDGLRFYYAN / GKNNRPS / SSRDSSGFQVP the result was 780 nM (3 of 3 replicates). With EGDSLRYYYAN / LKNNRPS / PSRDSSGFQVD the result was 4.1 µM (3 of 3 replicates).

For EGDSLRYRYAN / GKNNRPS / SSRESSGFQVV, the assay gave nd (0 of 3 replicates). With EGDSLRYYYAN / GKNNRPS / SSRDSSHVQVT the result was 1.0 µM (2 of 3 replicates). With EGDSLDYYYAN / GHNNRPS / SSRDSSGFQVA the result was 1.5 µM (3 of 3 replicates). With EGDSLRYYYNN / GLNNRPS / SSRDSSGFQVS the result was 3.6 µM (3 of 3 replicates). The variant ERDSLRYYYAN / GKNNRKS / SSRDSSGFQVY showed nd (0 of 3 replicates). For EGDSLRGYYAN / GKNNRPS / SSRDSSGFHVN, the assay gave 24 nM (3 of 3 replicates). The variant EGDSLRYFYAN / GKKNRPS / SSRDSSGFQVG gave nd (0 of 3 replicates).

For EGDSLRYYYAN / GKNNAPS / SSRDSSNFQVV, the assay gave nd (0 of 3 replicates). For EGDSLRYYYAN / GKNMRPS / SSRDWSGFQVM, the assay gave 1.4 µM (3 of 3 replicates). The variant EGDSLRYYYFN / GKNNRPS / SSMDSSGFQVL showed nd (0 of 3 replicates). With EGWSLRYYYAN / GKNNRPS / SSRNSSGFQVV the result was 5.0 µM (3 of 3 replicates). The variant EGDSLRHYYAN / GKNNRPS / SSRDSSGFCVS showed 60 nM (3 of 3 replicates). The variant EGDSLRLYYAN / GKNNRPS / SSPDSSGFQVW showed 640 nM (3 of 3 replicates). With EGDSLRYYYAN / GKNNRPS / SMLDSSGFQVS the result was nd (0 of 3 replicates).

For EGDGLRYYYAN / GKNNRPC / SSRDSSGFQVV, the assay gave 1.2 µM (3 of 3 replicates). For EGDSLRYYYAN / GKNNRPS / VSRDSSGFQGW, the assay gave 610 nM (3 of 3 replicates). The variant EGDSLRYYYAN / GKNNRPS / SSRDSSGFLFV gave 17 µM (1 of 3 replicates). With EGDSLRYYYAN / GKPNRPS / SSRDSSGFQVQ the result was 7.9 µM (2 of 3 replicates). With EGDSLRQYKAN / GKNNRPS / SSRDSSGFQVG the result was 320 nM (3 of 3 replicates). With EGESLRYYYAN / GKNNRIS / SSRDSSGFQVA the result was 470 nM (3 of 3 replicates). The variant EGDHLRYYYAN / GKMNRPS / SSRDSSGFQVC gave 210 µM (1 of 3 replicates).

The variant EQDSLRYYYAN / GKNNRPS / SSRDSSGHQVA showed 5.5 µM (2 of 3 replicates). The variant EGDTLRYYYAN / GKNNRPS / SSRDSSGFQGV gave 240 nM (2 of 3 replicates). The variant DGDSLRYYYAN / GKYNRPS / SSRDSSGFQVN showed nd (0 of 3 replicates). For EGDSLRYYPAN / GKNNRPS / SSRDSSGFQVH, the assay gave 30 nM (3 of 3 replicates). For EGTSLRYYYAN / GKNNRKS / SSRDSSGFQVD, the assay gave 6.0 µM (3 of 3 replicates). The variant EGDSLRYYYCN / GKNNRPS / SSTDSSGFQVR gave 760 nM (3 of 3 replicates). For EIDSLRYYYAN / GKNNRPS / SGRDSSGFQVT, the assay gave 38 nM (3 of 3 replicates).

The variant EGDSLRYYYAN / GKNVRPS / SSRDSQGFQVL gave 240 nM (3 of 3 replicates). For EGDSLRYYYAN / GKNNRPC / SSRDKSGFQVK, the assay gave 1.0 µM (3 of 3 replicates). The variant EGDRLRYYYAN / GKNNRPS / SSRDSSGFDVA showed 1.0 µM (3 of 3 replicates). The variant EGDSLRYYYAN / GKNNRPS / SSRDPSFFQVP gave 240 nM (3 of 3 replicates). The variant EGDSLRYYYAN / GKNNTAS / SSRDSSGFQVC showed 6.3 µM (3 of 3 replicates). For EGDSLRYYYAN / GKNNRPS / SSRDSSGYQVI, the assay gave 15 µM (1 of 3 replicates). The variant EKDSLWYYYAN / GKNNRPS / SSRDSSGFQVC showed 14 µM (2 of 3 replicates).

For EGDSLRYYYAN / GKRNRNS / SSRDSSGFQVN, the assay gave 1.4 µM (1 of 3 replicates). For MGDSLRYYYAN / GKSNRPS / SSRDSSGFQVM, the assay gave 360 nM (3 of 3 replicates). With EGDSLRYYYAN / GKNNRPW / SSRDSSGFSVW the result was 360 nM (3 of 3 replicates). The variant EGDSLRYYYAN / GKNNRPS / SSADSSFFQVT gave 1.2 µM (2 of 3 replicates). The variant EWDSLRYYYAN / GKNNRPS / SSRDSSYFQVS showed 69 µM (3 of 3 replicates). The variant EGDSLRYYYAN / GKRNRPS / SSRDSSGFLVI showed 5.5 µM (1 of 3 replicates). For EGDSLRYYYAN / GPNNRPS / SSRDSWGFQVR, the assay gave 8.9 µM (3 of 3 replicates).

The variant EGDMLDYYYAN / GKNNRPS / SSRDSSGFQVH gave 60 nM (3 of 3 replicates). The variant EGDSLTYYYAN / GKNYRPS / SSRDSSGFQVA gave 2.7 µM (3 of 3 replicates).

Repeated from above, the 9 best binders with a signal in all replicates:

CDR-L1	CDR-L2	CDR-L3	Kd	seen in
EGDSLRGYYAN	GKNNRPS	SSRDSSGFHVN	24 nM	3 of 3
EGDSLRYYPAN	GKNNRPS	SSRDSSGFQVH	30 nM	3 of 3
EIDSLRYYYAN	GKNNRPS	SGRDSSGFQVT	38 nM	3 of 3
EGDSLRHYYAN	GKNNRPS	SSRDSSGFCVS	60 nM	3 of 3
EGDMLDYYYAN	GKNNRPS	SSRDSSGFQVH	60 nM	3 of 3
NGDSLRYYYAN	GKNNRSS	SSRDSSGFQVR	220 nM	3 of 3
EGDSLRYYYAN	GKNVRPS	SSRDSQGFQVL	240 nM	3 of 3
EGDSLRYYYAN	GKNNRPS	SSRDPSFFQVP	240 nM	3 of 3
EGDSLRQYKAN	GKNNRPS	SSRDSSGFQVG	320 nM	3 of 3